Experimental data published in the Kinase Knowledgebase extract (Sharma et al. 2016).

Molecular target: CDK2 (human) (UniProt P24941)
Experiment: Enzyme Assay

Compound	IC50
NC[C@H](Cc1ccc(O)cc1)NC(=O)c1cc(C(=O)O)c2cc(C=Cc3ccc(Cl)cc3)ccc2n1	≤ 1 µM
COC[C@H](Cc1ccc(O)cc1)NC(=O)c1cc(NS(=O)(=O)C(C)(C)C)c2cc(-c3cccc(Cn4cccn4)c3)ccc2n1	≤ 1 µM
NCC[C@H](Cc1ccc(O)cc1)NC(=O)c1cc(C(=O)O)c2cc(C=Cc3ccc(Cl)cc3)ccc2n1	≤ 1 µM
Cn1nnc([C@H](Cc2ccc(O)cc2)NC(=O)c2cc(C(=O)O)c3cc(-c4cccc(C(F)(F)F)c4)ccc3n2)n1	≤ 1 µM
COC(=O)c1cccc(-c2ccc3nc(C(=O)N[C@@H](Cc4ccc(O)cc4)C(=O)OC)cc(C(=O)O)c3c2)c1	≤ 1 µM
COC[C@H](Cc1ccc(O)cc1)NC(=O)c1cc(NS(=O)(=O)C(C)(C)C)c2cc(-c3cccc(Cn4ccnc4)c3)ccc2n1	≤ 1 µM
COC(=O)C[C@H](Cc1ccc(O)cc1)NC(=O)c1cc(C(=O)O)c2cc(-c3cccc(C(F)(F)F)c3)ccc2n1	≤ 1 µM
CCCCS(=O)(=O)Nc1cc(C(=O)N[C@H](COC)Cc2ccc(O)cc2)nc2ccc(-c3cccc(C(F)(F)F)c3)cc12	≤ 1 µM
COC[C@H](Cc1ccc(O)cc1)NC(=O)c1cc(NS(=O)(=O)C(C)(C)C)c2cc(-c3cccc(Cn4ccccc4=O)c3)ccc2n1	≤ 1 µM
COC(=O)C(NC(=O)c1cc(C(=O)O)c2cc(-c3cccc(C(F)(F)F)c3)ccc2n1)[C@@H](C)c1ccccc1 (some centres not stated)	≤ 1 µM
COC(=O)[C@H](Cc1ccc(O)cc1)NC(=O)c1cc(C(=O)O)c2cc(-c3ccc(C(F)(F)F)cc3)ccc2n1	≤ 1 µM
COC[C@H](Cc1ccc(O)cc1)NC(=O)c1cc(C(=O)O)c2cc(-c3cccc(Cn4ccnc4)c3)ccc2n1	≤ 1 µM
CCOC[C@H](Cc1ccc(O)cc1)NC(=O)c1cc(C(=O)O)c2cc(-c3cccc(C(F)(F)F)c3)ccc2n1	≤ 1 µM
COC[C@H](Cc1ccc(O)cc1)NC(=O)c1cc(C(=O)O)c2cc(-c3cccc(Cn4cccn4)c3)ccc2n1	≤ 1 µM
COC(=O)[C@H](Cc1ccc(O)c(O)c1)NC(=O)c1cc(C(=O)O)c2cc(-c3cccc(C(F)(F)F)c3)ccc2n1	≤ 1 µM
COC[C@H](Cc1ccc(O)cc1)NC(=O)c1cc(NS(=O)(=O)c2ccccc2)c2cc(-c3cccc(C(F)(F)F)c3)ccc2n1	≤ 1 µM
COC(=O)[C@H](Cc1ccc(O)cc1)NC(=O)c1cc(C(=O)O)c2cc(C3CC3c3ccccc3)ccc2n1 (some centres not stated)	≤ 1 µM
COC(=O)[C@H](Cc1ccc(O)cc1)NC(=O)c1cc(C(=O)O)c2cc(-c3ccc4c(c3)OCO4)ccc2n1	≤ 1 µM
COC(=O)[C@H](Cc1ccc(O)cc1)NC(=O)c1cc(C(=O)O)c2cc(-c3ccccc3C)ccc2n1	≤ 1 µM

Compound	IC50
COC[C@H](Cc1ccc(O)cc1)NC(=O)c1cc(C(=O)O)c2cc(OCc3cccc(C(F)(F)F)c3)ccc2n1	≤ 1 µM
COC[C@H](Cc1ccc(O)cc1)NC(=O)c1cc(C(=O)O)c2cc(OCc3ccc(Cl)cc3)ccc2n1	≤ 1 µM
COC(=O)[C@H](Cc1ccc(O)cc1)NC(=O)c1cc(C(=O)O)c2cc(C=Cc3ccc(C(F)(F)F)cc3)ccc2n1	≤ 1 µM
COC(=O)[C@H](Cc1ccc(O)cc1)NC(=O)c1cc(C(=O)O)c2cc(-c3ccc(-c4ccccc4)cc3)ccc2n1	≤ 1 µM
COC[C@H](Cc1ccc(O)cc1)NC(=O)c1cc(NS(=O)(=O)C(C)(C)C)c2cc(-c3cccc(C(F)(F)F)c3)ccc2n1	≤ 1 µM
COC[C@H](Cc1ccc(O)cc1)NC(=O)c1cc(NS(=O)(=O)c2cccs2)c2cc(-c3cccc(C(F)(F)F)c3)ccc2n1	≤ 1 µM
COC(=O)[C@H](Cc1ccc(O)cc1)NC(=O)c1cc(C(=O)O)c2cc(C=Cc3ccccc3)ccc2n1	≤ 1 µM
COC[C@H](Cc1ccc(O)cc1)NC(=O)c1cc(NS(=O)(=O)Cc2ccccc2)c2cc(-c3cccc(C(F)(F)F)c3)ccc2n1	≤ 1 µM
COC[C@H](Cc1ccc(O)cc1)NC(=O)c1cc(NS(=O)(=O)C(C)C)c2cc(-c3cccc(C(F)(F)F)c3)ccc2n1	≤ 1 µM
COC(=O)[C@H](Cc1ccc(O)cc1)NC(=O)c1cc(C(=O)O)c2cc(-c3ccc(C(C)(C)C)cc3)ccc2n1	≤ 1 µM
COC(=O)[C@H](Cc1ccc(O)cc1)NC(=O)c1cc(C(=O)O)c2cc(-c3ccc(OCc4ccccc4)cc3)ccc2n1	≤ 1 µM
COC[C@H](Cc1ccc(O)cc1)NC(=O)c1cc(C(=O)O)c2cc(COc3ccc(OC(F)(F)F)cc3)ccc2n1	≤ 1 µM
COC[C@H](Cc1ccc(O)cc1)NC(=O)c1cc(C(=O)O)c2cc(-c3cccc(COc4ccccn4)c3)ccc2n1	≤ 1 µM
CC(C)(C)OC(=O)[C@H](Cc1ccc(O)cc1)NC(=O)c1cc(C(=O)O)c2cc(-c3cccc(C(F)(F)F)c3)ccc2n1	≤ 1 µM
O=C(N[C@H](CO)Cc1ccc(O)cc1)c1cc(C(=O)O)c2cc(-c3cccc(C(F)(F)F)c3)ccc2n1	≤ 1 µM
CN1CCN(C[C@H](Cc2ccc(O)cc2)NC(=O)c2cc(C(=O)O)c3cc(C=Cc4ccc(Cl)cc4)ccc3n2)CC1	≤ 1 µM
CCS(=O)(=O)Nc1cc(C(=O)N[C@H](COC)Cc2ccc(O)cc2)nc2ccc(-c3cccc(C(F)(F)F)c3)cc12	≤ 1 µM
COC(=O)C(Cc1ccc(O)cc1)NC(=O)c1cc(C(=O)N(C)C)c2cc(-c3cccs3)ccc2n1 (configuration not stated)	≤ 1 µM
